Data taken from patent US7648977B2, “Pharmaceutical composition having a ruthenium oxalato compound and method of using the same” (The University of Hong Kong, priority 2005, dated 2010).

How the values were obtained:
Hut/CCR5 cells = settings: host cells (Hut/CCR5, GHOST/CXCR4, PBMC), MTT assay

Q: For Na7[Ru4(μ3-O)4(C2O4)6] [Complex 2], which “stability in physiological medium (UV-vis spectra)” value (2 mM GSH aqueous solution, 7 days) is on record?
A: stable

Q: And the “stability in H2O (UV-vis spectra)” value (H2O, standing for 7 days)?
A: stable

Q: And the “cytotoxicity to the host cells” value (Hut/CCR5 cells)?
A: low cytotoxicity
